Data as given in ChEMBL document CHEMBL3585253, “Thiazolidine-2,4-dione derivatives: programmed chemical weapons for key protein targets of various pathological conditions” (2015).

Chains of the proteins cited; added tags and fusions are not shown. Lines headed by an entry give the natural chain unless they say otherwise; changes in a name come on top.
UniProt P37231: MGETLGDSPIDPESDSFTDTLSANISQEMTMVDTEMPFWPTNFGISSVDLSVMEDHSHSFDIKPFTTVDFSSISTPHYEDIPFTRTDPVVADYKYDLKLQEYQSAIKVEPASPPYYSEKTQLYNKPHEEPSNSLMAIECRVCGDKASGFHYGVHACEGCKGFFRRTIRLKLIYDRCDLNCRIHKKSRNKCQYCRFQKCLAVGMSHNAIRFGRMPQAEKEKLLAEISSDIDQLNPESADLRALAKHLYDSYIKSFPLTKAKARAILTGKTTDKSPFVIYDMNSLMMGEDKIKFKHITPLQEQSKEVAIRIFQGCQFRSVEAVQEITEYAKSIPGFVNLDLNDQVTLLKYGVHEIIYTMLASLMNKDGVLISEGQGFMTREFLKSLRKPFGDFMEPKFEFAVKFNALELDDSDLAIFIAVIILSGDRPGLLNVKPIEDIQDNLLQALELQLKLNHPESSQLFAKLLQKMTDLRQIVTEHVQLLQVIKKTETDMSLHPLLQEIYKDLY
UniProt P18031: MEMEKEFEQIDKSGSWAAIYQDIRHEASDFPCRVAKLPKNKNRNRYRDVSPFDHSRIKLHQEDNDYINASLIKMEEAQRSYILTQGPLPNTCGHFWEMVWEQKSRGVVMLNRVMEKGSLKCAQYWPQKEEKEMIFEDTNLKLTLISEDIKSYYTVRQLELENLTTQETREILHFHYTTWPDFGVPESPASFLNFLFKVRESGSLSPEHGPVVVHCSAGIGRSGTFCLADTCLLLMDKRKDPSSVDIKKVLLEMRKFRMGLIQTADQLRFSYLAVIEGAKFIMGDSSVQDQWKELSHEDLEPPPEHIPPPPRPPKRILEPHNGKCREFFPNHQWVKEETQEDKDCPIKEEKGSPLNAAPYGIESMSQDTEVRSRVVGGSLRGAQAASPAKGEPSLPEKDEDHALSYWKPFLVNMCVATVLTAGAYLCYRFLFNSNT

How the values were obtained:
[1] = target: Aldo-keto reductase family 1 member B1 (Homo sapiens, UniProt P15121); assay: Inhibition of aldose reductase (unknown origin)
[2] = target: Peroxisome proliferator-activated receptor gamma (Homo sapiens, UniProt P37231); assay: Agonist activity at PPARgamma (unknown origin)
[3] = target: Tyrosine-protein phosphatase non-receptor type 1 (Homo sapiens, UniProt P18031); assay: Inhibition of GST-tagged PTP1B (unknown origin) by pNPP catalysis based colorimetric high throughput assay

SMILES | IC50 [1] [nM] | also measured
O=C1NC(=O)/C(=C/c2ccc(Oc3ccccc3)cc2)S1 | 6140 | –
O=C(O)CN1C(=O)S/C(=C\c2ccc(Oc3ccccc3)cc2)C1=O | 130 | –
C/C(=N/OCCOc1cccc(CC2SC(=O)NC2=O)c1)c1ccc(-c2ccccc2)cc1 (centres undefined) | – | IC50 [2]: 190 nM
O=C1NC(=O)/C(=C/c2ccc(-c3ccc(OCc4ccccc4)cc3)cc2)S1 | – | IC50 [3]: 690 nM
